Values of other authors in patent US20070043110A1, “Nontoxic potentiation sensitization of ovarian cancer therapy by supplementary treatment with vitamins” (Summa Health System, priority 2001, published 2007).
Read-outs that look alike come from different tables or passages of the source.

Experiments:
[1] = test system: MCF-7 breast cancer cells; settings: with doxorubicin or mitomycin, VK3 pretreatment; cited from earlier work
[2] = test system: human oral epidermoid carcinoma (KB) cell cultures; settings: cited from earlier work
[3] = test system: nasopharyngeal carcinoma cells; settings: with doxorubicin, 5-FU, and vinblastine; cited from earlier work

CC1=CC(=O)c2ccccc2C1=O [Vitamin K3, 2-Methyl-1,4-Naphthoquinone]
interaction with chemotherapeutic agents [1]: Synergistic activity
interaction with chemotherapeutic agents ([2]; with actinomycin D, cytarabine, doxorubicin, hydroxyurea, mercaptopurine, mitomycin C, mitoxantrone, thiotepa, vincristine and VP-16): additive effect
interaction with chemotherapeutic agents ([2]; with bleomycin, cisplatin, dicarbazine and 5-fluorouracil): synergism
interaction with chemotherapeutic agents [3]: Synergistic activity
